# Experimental data from PubChem BioAssay AID2766 (Sanford-Burnham Center for Chemical Genomics, 2010).
# The chains behind the UniProt entries cited, without tags or fusion partners. Where a name states a change or a piece, a line headed by the entry shows the natural chain unless it says otherwise.
# UniProt P35414: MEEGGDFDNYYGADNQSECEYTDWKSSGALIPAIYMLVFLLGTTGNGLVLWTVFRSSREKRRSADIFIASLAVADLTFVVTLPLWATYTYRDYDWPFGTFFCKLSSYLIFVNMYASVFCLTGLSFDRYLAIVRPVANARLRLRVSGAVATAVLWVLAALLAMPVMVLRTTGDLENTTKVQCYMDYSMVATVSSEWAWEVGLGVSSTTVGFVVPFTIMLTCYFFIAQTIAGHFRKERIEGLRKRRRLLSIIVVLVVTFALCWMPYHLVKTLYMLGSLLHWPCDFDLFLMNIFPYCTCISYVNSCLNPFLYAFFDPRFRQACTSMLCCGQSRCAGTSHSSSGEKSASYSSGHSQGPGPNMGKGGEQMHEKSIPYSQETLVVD
# The entries are a selection whose mix differs from that of the whole data set. Activity calls are given as the source filed them. Rule as the data show it: active = inhibition above about 50%; inactive = the rest.
# Biological target: Apelin receptor (Homo sapiens) (UniProt P35414)
# Test: APJ antagonists blocking beta-arrestin recruitment, confirmation, cell-based, luminescence, single concentration, uHTS hits (AID 2766)
# Conditions: antagonist mode, at 20 µM, hits give high values
smiles,measurement,value
C[N+]1=C2C=CC=CC=C2SC12C([N+](=O)[O-])=CC([N+](=O)[O-])=C[C-]2[N+](=O)[O-] (stereo unspecified),inhibition,active: 79.5%
